Data published in patent US9447029B2, “Fluorinated arylalkylaminocarboxamide derivatives” (NEWRON PHARMACEUTICALS S.P.A., priority 2011, dated 2016).

System: hindlimb tonic extensor component of seizures
Settings: 15 minutes before testing, mice
From the text: The maximal electroshock test (MES) is used commonly in the screening of anti-epileptic drugs in rodent models.

Compound | 50% Protection (po) | 50% Protection (iv)
CCCCOc1cccc(C(F)(F)CNCC(=O)N(C)C)c1 [Example 1-1, 2-[2,2-Difluoro-2-(3-butoxyphenyl)-ethylamino]-N,N-dimethyl-acetamide, hydrochloride] | (9.8 mg/kg, po) | –
CCCCOc1cccc(C(F)CNCC(=O)N(C)C)c1 (centres unmarked) [Example 4-1, 2-[2-Fluoro-2-(3-butoxyphenyl)-ethylamino]-N,N-dimethyl-acetamide, hydrochloride] | – | (4.0 mg/kg, iv)

Where a name gives a salt, the structure may show the parent alone. Read-outs that look alike come from different tables or passages of the source.
